According to patent US20130123253A1, “MODULATORS OF CENTRAL NERVOUS SYSTEM NEUROTRANSMITTERS” (HUMAN BIOMOLECULAR RESEARCH INSTITUTE, priority 2004, published 2013):

COc1ccc(F)cc1CCC1CCC(CCN)O1 (centres unmarked) [Compound 14, 2-Aminoethyl-5-(2′-methoxy-5′-fluorophenethyl)tetrahydrofuran]
half life, rat liver microsomes (NADPH): 1.77 h | RLM t1/2 (Table 16): 1.772 h
